Source: ChEMBL document CHEMBL4616722, “Discovery of Novel PDEδ Degraders for the Treatment of KRAS Mutant Colorectal Cancer” (J Med Chem, 2020)

By UniProt entry, the sequences of proteins in these tests, tags left out. Where a name states a change or a piece, a line headed by the entry shows the natural chain unless it says otherwise.
UniProt O43924: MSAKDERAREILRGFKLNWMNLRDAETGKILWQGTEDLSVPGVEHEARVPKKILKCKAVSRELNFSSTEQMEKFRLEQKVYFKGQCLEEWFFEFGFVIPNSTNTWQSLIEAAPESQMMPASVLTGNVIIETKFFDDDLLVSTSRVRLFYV

Target: Retinal rod rhodopsin-sensitive cGMP 3',5'-cyclic phosphodiesterase subunit delta (Homo sapiens, UniProt O43924)

Kd: < 0.01 µM
SMILES: c1ccc(Cn2c(-c3ccc(OC[C@H](C4CCNCC4)n4c(-c5ccccc5)nc5ccccc54)cc3)nc3ccccc32)cc1
